## Apparent affinities of Ab-95 variants for a coronavirus HR2 peptide

Target: peptide PDVDLGDISGINAS, taken from heptad repeat 2 (HR2) of SARS-CoV-2 spike.

Each scFv is VH, three GGGGS repeats, VL, as in the parent Ab-95, and differs from it in the CDRs of the light chain only.
VH: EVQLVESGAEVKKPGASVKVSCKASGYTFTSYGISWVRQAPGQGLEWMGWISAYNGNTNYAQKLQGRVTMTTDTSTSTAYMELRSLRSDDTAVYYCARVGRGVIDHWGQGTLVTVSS
VL: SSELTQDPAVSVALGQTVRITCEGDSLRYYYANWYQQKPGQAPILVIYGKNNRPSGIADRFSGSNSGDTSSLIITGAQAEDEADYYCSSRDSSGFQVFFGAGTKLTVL

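The starting antibody came from a phage panning campaign against this peptide. Variants in AAYL52 differ from the parent at up to three CDR positions; double and triple changes were sampled at random. The scFvs were displayed on barcoded MATa yeast, the peptide on MATalpha yeast. Mating (16 h, 30 °C) was followed by selection of diploids and sequencing of their barcodes. A regression on co-assayed BCL2-family reference pairs converts the normalised counts of each replicate to an apparent Kd. Each pool was mated in three replicate cultures.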

Each variant is given by its three light chain CDRs, as the data file delimits them; those of the parent are EGDSLRYYYAN, GKNNRPS, SSRDSSGFQVF. Affinities are written as log10 Kd with Kd in nM; a lower number is a better binder. An entry "nd" has no value in the source: the pair was not observed among the diploids in that replicate. This suggests poor binding but is not conclusive. Nonspecific signal, from three strains lacking the peptide, appeared in 28% of pairings of library AAYL52, centred on 3.91 (5% of these signals below 2.90); values are not corrected for it. The control count says in how many pairings with the empty strains this scFv gave a signal, with their mean in brackets.

| CDR-L1 | CDR-L2 | CDR-L3 | replicates, log10 nM | signal with controls |
|---|---|---|---|---|
| EGDSHRYYYAG | GKNNRPS | SSRASSGFQVF | 4.22 / 2.95 / 3.68 | 4 of 9 (3.23) |
| EGDSLRYYYAN | GKNNRPS | DSRDSSGFQVF | 2.91 / 2.56 / 1.77 | 0 of 9 |
| EGDSLRDPYAN | GKNNRPS | SSRDSSGFQVF | 1.88 / 1.83 / 1.74 | 3 of 9 (3.53) |
| EGDSLRMYQAN | GKNNRPS | SSRDSSGCQVF | 2.17 / 2.41 / 1.43 | 1 of 9 (5.12) |
| EGDSLRYYYAN | GKQNRSS | SSWDSSGFQVF | 3.38 / 3.50 / nd | 5 of 9 (3.96) |
| EADSLLYYYAN | GKNNRPS | SLRDSSGFQVF | 5.53 / 3.73 / 4.37 | 1 of 9 (3.58) |
| EGDSLRYYYAN | GKNNRPS | SSVDSSGFNDF | 2.72 / 2.48 / 2.68 | 2 of 9 (4.13) |
| EGDSLRYYYAN | GKNNRPS | VSRDSVGTQVF | 2.77 / 2.93 / 2.78 | 1 of 9 (3.51) |
| EGYELRYYYAN | GKNNRQS | SSRDSSGFQVF | nd / nd / nd | 2 of 9 (3.66) |
| EGDSLRYYYAN | GKNLIPS | SSRDSSGFTVF | nd / 4.11 / nd | 3 of 9 (4.60) |
| DGDSLDYYYAN | HKNNRPS | SSRDSSGFQVF | nd / nd / nd | 1 of 9 (4.11) |
| YGDSLRYYYAN | GKNNRPS | SSRDGIGFQVF | 2.84 / 2.49 / 2.53 | 4 of 9 (3.47) |
| AGDSLRYYYAN | GKNNRPS | SSRWSSCFQVF | 3.74 / 2.43 / 2.88 | 5 of 9 (4.30) |
| EGDSLRYYYAK | QKNNRPS | SSRDSSGFQVF | 4.06 / 4.42 / nd | 2 of 9 (4.03) |
| RGCSLRYYYAN | GKNERPS | SSRDSSGFQVF | 3.17 / 3.67 / 2.57 | 3 of 9 (3.40) |
| EGDSTRYYCAN | GKNNRPS | SSRDSSGFTVF | nd / nd / 4.40 | 0 of 9 |
| EGDSLRYYYAN | EKNNRPS | SSRDSSFVQVF | 2.90 / 3.60 / 3.25 | 1 of 9 (4.51) |
| TGDSLRYYYAG | GKNNSPS | SSRDSSGFQVF | nd / nd / nd | 1 of 9 (3.65) |
| EGRSRRYYYAN | GKNNRPS | SSRDSSGFQRF | nd / nd / nd | 4 of 9 (3.57) |
| EGDSLRYYYAN | GKNNRKS | SPRDSSVFQVF | 3.01 / 5.60 / 3.32 | 3 of 9 (3.78) |
| EGDSLRYYYAD | GYNNRPS | SSRMSSGFQVF | nd / nd / nd | 4 of 9 (3.43) |
| EGDSLRYYYCN | GKNNRPC | SSRDSSGFQHF | 5.03 / nd / nd | 1 of 9 (4.51) |
| EGDSLRYYYAN | GKNNRPS | SSRDSCGFLYF | 2.57 / 2.33 / 2.44 | 0 of 9 |
| EGDSLRYYYAN | GKWDRPS | SSRDSSMFQVF | nd / nd / nd | 4 of 9 (3.89) |
| WGDSLRYYYAN | GKNNRQS | SSRDSSGFQVF | nd / nd / nd | 0 of 9 |
| EGDSERYYYAN | GKNNRPS | SSRDMSGFLVF | 5.31 / nd / nd | 3 of 9 (3.49) |
| EGDSLRYYDAN | GKNNRFS | SSRVSSGFQVF | 2.16 / 1.80 / 1.54 | 3 of 9 (3.74) |
| EGDSLRYYYYN | GKNNRPS | SSRDSSDFQVC | nd / nd / nd | 2 of 9 (3.85) |
| EGDSLRYYYAN | MKNNRPP | SSRTSSGFQVF | 4.42 / 4.83 / nd | 4 of 9 (4.30) |
| EGDKLCYYYAN | GKNNRPS | SSRDSSEFQVF | 3.35 / 3.53 / 4.64 | 1 of 9 (3.94) |
| EGDSLRYYYAN | GKNNRPS | SSRDSSGFQVQ | 2.53 / 2.35 / 1.63 | 1 of 9 (4.81) |
| EGDSSRKYYAN | GKNNRPS | SSRDVSGFQVF | 3.33 / 2.86 / 2.94 | 5 of 9 (4.02) |
| EGDSVRYYYAN | GKNQRKS | SSRDSSGFQVF | 3.62 / 4.10 / nd | 1 of 9 (2.48) |
| AGDSLEYYYAN | GKNNRPS | SSRDSSGFQVI | 3.37 / 2.41 / 2.06 | 3 of 9 (4.22) |
| EGDSLRYYYAN | GKNNTPS | ESRDSSGFQVF | 2.70 / 2.40 / 2.23 | 0 of 9 |
| EGDSARYYYAN | GKNNHPS | SSIDSSGFQVF | 3.88 / nd / nd | 1 of 9 (4.46) |
| EGDSLRYYYAN | LKNNRPS | SSDDSSGFQVA | 3.57 / nd / nd | 3 of 9 (4.30) |
| EADSLRYYYSN | GKNNRIS | SSRDSSGFQVF | nd / nd / 3.71 | 1 of 9 (4.93) |
| EGDSLRYYYAN | QKNNRPS | YSRDSDGFQVF | 3.92 / 4.65 / 4.33 | 3 of 9 (3.92) |
| EGDSLRYYYAN | VKCNRYS | SSRDSSGFQVF | nd / 4.46 / nd | 2 of 9 (3.72) |
| EGDSARYYYAN | GKNRRPS | SNRDSSGFQVF | nd / nd / nd | 4 of 9 (3.56) |
| EGYSLRYYYAN | GKNNRPS | SSRPSSGFQVE | 2.16 / 2.59 / 2.92 | 0 of 9 |
| EGDSLRYYYAN | GKNNRPW | SSRASSGIQVF | 3.44 / 2.87 / 3.88 | 5 of 9 (3.99) |
| AGDSLRYYYAN | GKNNRPS | SSTDSHGFQVF | 2.79 / 2.43 / 2.72 | 2 of 9 (3.56) |

For reference, 5 entries of the list once more:

{"CDR-L1": "EGDSLRYYYAN", "CDR-L2": "GKNNRPS", "CDR-L3": "SSRDSCGFLYF", "replicates, log10 nM": "2.57 / 2.33 / 2.44", "signal with controls": "0 of 9"}
{"CDR-L1": "EGDSLRYYYAN", "CDR-L2": "GKWDRPS", "CDR-L3": "SSRDSSMFQVF", "replicates, log10 nM": "nd / nd / nd", "signal with controls": "4 of 9 (3.89)"}
{"CDR-L1": "DGDSLDYYYAN", "CDR-L2": "HKNNRPS", "CDR-L3": "SSRDSSGFQVF", "replicates, log10 nM": "nd / nd / nd", "signal with controls": "1 of 9 (4.11)"}
{"CDR-L1": "EGDSHRYYYAG", "CDR-L2": "GKNNRPS", "CDR-L3": "SSRASSGFQVF", "replicates, log10 nM": "4.22 / 2.95 / 3.68", "signal with controls": "4 of 9 (3.23)"}
{"CDR-L1": "EGDSLRYYYAN", "CDR-L2": "GKNNTPS", "CDR-L3": "ESRDSSGFQVF", "replicates, log10 nM": "2.70 / 2.40 / 2.23", "signal with controls": "0 of 9"}

From the AlphaSeq antibody data of Engelhart et al. 2022 (doi:10.1038/s41597-022-01779-4), copy in the FLAb collection.